From patent publication US8258311B2, “Human protein tyrosine phosphatase inhibitors and methods of use” (Aerpio Therapeutics Inc., priority 2006, dated 2012)

Tests used:
[1] = Rat hindlimb model: body weight; type: in vivo; settings: mean ± SE, in g (unit assumed)
[2] = Rat hindlimb model: blood pressure and heart rate; type: in vivo; settings: mean ± SE
Excerpt: An initial surgery is done to create hindlimb ischemia and implant osmotic pumps essentially as previously described with minor alterations. Briefly, adult male Sprague-Dawley rats (wt 340-390 grams) are first placed in an induction chamber with an O2 flow rate of 1 L/min and Isoflurane (ISO) at 2.5%, body temperature is maintained via a heating pad under the chamber. Following induction, animals are transferred to a surgical mat and anesthesia is continued via a non-rebreathing circuit. A warming lamp is positioned above the rat and a rectal probe is placed to monitor the animal's body temperature. The groin areas bilaterally are clipped and prepared with alternating Betadine and alcohol scrubs (3×) and a sterile drape is placed over the rat. The left femoral artery is exposed through a skin incision and subsequently ligated in two positions 1 cm apart; distal to the inguinal ligament and proximal to the femoral circumflex artery. The skin is closed using either skin staples or Vetbond. The same procedure is repeated on the right side. […] Stretched PESO catheters coated with PPG (Poly propylene glycol Aldrich # 20-235-5) are attached using sterile technique and in accordance with manufacture's instructions the afternoon prior to surgery. For pump placement, an incision is made to expose the right jugular vein, an area is tunneled SubQ from the right side of the neck to the back and the pump is placed in the resulting SubQ pocket. The vessel is ligated with 4-0 silk, a cut is made in the vessel just distal to the tie and the catheter from the osmotic pump is threaded down stream (approx 2 cm) and secured with a second tie. The skin is closed in the same manner as above.
Two weeks after the ligation surgery the rat underwent a second acute surgery to place indwelling catheters for microsphere measurements. Rats are anesthetized as described above. The animal is clipped, prepped, and EMLA cream is applied to each entry site. First an incision is made longitudinally at the ventral base of the tail using a 10 blade. A tapered PE 50 catheter is inserted approximately 3 cm into the ventral tail artery and anchored into place. The end of the catheter is then wrapped around the tail and tunneled SubQ over the back, exiting between the shoulder blades. Following tail artery cannulation, a midline neck incision is made to expose the left carotid artery for occlusive cannulation. A tapered PE 50 catheter is placed 3 cm into the carotid and the distal end is tunneled SubQ, exiting between the shoulder blades. The neck is closed with either skin stables or Vetbond and EMLA cream is applied. The exit site is closed around the catheters with a purse string suture stitch. The ends of the catheters are cauterized shut and the rat is allowed to recover from anesthesia for at least 4 hours.
For blood flow measurements, rats are placed onto the treadmill and the catheters are connected to extension tubing via 22 gage male-male connectors. For microsphere withdrawals and blood pressure measurements, the tail artery catheter is connected to a syringe (coated with tween and heparin-), which is “T” Ed to a withdrawal pump and a pressure transducer. The carotid catheter is used for injecting the microspheres. The rat began running at speed 20 m/min and an elevation of 7°. One minute into the run the pump is turned on at a rate of 0.5 ml/min, ten seconds later 0.5 ml (1×10^6 spheres/mL) of florescent microspheres are infused into the carotid line followed by a 0.5 ml flush over 30 seconds. The pump is set to stop at 90 seconds. The tmill is stopped, the extension lines are replaced and the animal's lines are flushed, and the animal allowed to rest. The syringe and lines are removed from the pump and the reference blood sample is place in a labeled tube for processing. […]

Substance: VEGF
- Initial Body Wt ([1]; VEGF 15 μg/kg/d group, initial): 372 ± 3.6
- Ending Body Wt ([1]; VEGF 15 μg/kg/d): 421 ± 5.5
- Blood Pressure Pre-Exercise ([2]; VEGF 15 μg/kg/d osmotic pump, two weeks after ligation): 146 ± 2.5
- Blood Pressure Exercise ([2]; VEGF 15 μg/kg/d): 156 ± 2.3
- Blood Pressure Post-Exercise ([2]; VEGF 15 μg/kg/d): 149 ± 2.8
- Heart Rate Exercise ([2]; VEGF 15 μg/kg/d): 489 ± 10.0
- Heart Rate Post-Exercise ([2]; VEGF 15 μg/kg/d): 476 ± 18.1
- Heart Rate Pre-Exercise ([2]; VEGF 15 μg/kg/d): 452 ± 29.5
